## Apparent affinities of Ab-14 variants for a coronavirus HR2 peptide

From the AlphaSeq antibody data of Engelhart et al. 2022 (doi:10.1038/s41597-022-01779-4), copy in the FLAb collection.

All variants were tested on one target, the spike HR2 peptide PDVDLGDISGINAS (SARS-CoV-2).

Parent scFv Ab-14: VH joined to VL by the linker GGGGSGGGGSGGGGS. Changes lie in the heavy chain CDRs alone.
VH: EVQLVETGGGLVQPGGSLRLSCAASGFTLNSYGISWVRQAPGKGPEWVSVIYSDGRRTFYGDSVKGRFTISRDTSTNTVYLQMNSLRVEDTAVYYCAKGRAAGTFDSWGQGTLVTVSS
VL: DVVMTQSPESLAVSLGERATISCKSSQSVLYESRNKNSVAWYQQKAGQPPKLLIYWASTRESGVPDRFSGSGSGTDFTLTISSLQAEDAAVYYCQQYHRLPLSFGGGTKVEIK

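The parent was found by panning a naive human phage display library on the peptide. The library (AAYL49) carries one to three amino acid substitutions per variant, with no insertions or deletions. AlphaSeq pools MATa yeast showing the antibodies with MATalpha yeast showing the peptide. Pairs that bind mate more often; barcode pairs of the diploids are counted by sequencing. Each replicate has its own calibration line, from reference interactions of the BCL2 family. There are three technical replicates.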

The parent's heavy chain CDRs are GFTLNSYGIS, VIYSDGRRTFYGDSVK, GRAAGTFDS; each variant's own CDRs replace them letter for letter.
Numbers give log10(Kd / nM), so 0 is 1 nM and 3 is 1 µM. Smaller is tighter.
Where no diploid with the target was found in that replicate, the entry reads "nd": below detection, most likely a poor binder, though not proof of it.
For reference, the parent read 0.65 as the reference entry and 4.11 (one replicate of three) as a member of this library.

| CDR-H1 | CDR-H2 | CDR-H3 | log10 Kd, replicates | signal with controls |
|---|---|---|---|---|
| GFTLNSYNIS | VFYSDGRRTFYGDSVK | GRAAGTFDV | nd / 3.53 / 2.98 | 0 of 9 |
| AFTLNSYGIS | VMYSDGRRTFYGDSVK | GRQAGTFDS | 1.14 / 1.35 / 0.72 | 0 of 9 |
| GFTLNSYGIS | HIYETGRRTFYGDSVK | GRAAGTFDS | 4.85 / nd / nd | 0 of 9 |
| GFTLNSYCIS | VIYSDGRRTFYGDSIK | GRAAGTFDS | nd / nd / nd | 0 of 9 |
| GSHLNSYGIS | VIYSDGRRTFYGDSVK | GRAAGTFDS | nd / nd / nd | 0 of 9 |
| GFTLNSYGIS | VIYSAGRRTFYGDSVK | GGAAGTFDS | 4.43 / 3.53 / nd | 4 of 9 (5.25) |
| GFTLNSYGIS | VIYSDGRRTYYGDMVK | GRAAGTDDS | nd / 4.56 / 3.74 | 0 of 9 |
| GFTLNSYGWS | VIYSDGRITFYFDSVK | GRAAGTFDS | nd / nd / nd | 0 of 9 |
| GFTLNSYGIS | VIYSDGKRIFYGDSVK | GRAAGTFDG | nd / 1.94 / 0.97 | 1 of 9 (2.12) |
| GFTLNSYGIW | VIYSDGRRTFFGDSVK | GRAAGFFDS | 3.73 / nd / 5.96 | 3 of 9 (3.78) |
| GFTWNSQGIS | VIYSDGRRTFYGDSVI | GRAAGTFDS | 3.51 / 3.96 / nd | 3 of 9 (3.29) |
| GFTLNSYGIS | VIYSDGRGTFYGDSVK | LRAAGTFDE | nd / nd / nd | 0 of 9 |
| GFTLNSYGIS | VIYSDGRRTFYGDAVK | GRAAGCFSS | nd / nd / nd | 0 of 9 |
| GFTLNSGGIS | VIRSDGRRTFYGDSVK | GRAAGTFDS | nd / 3.09 / nd | 1 of 9 (3.65) |
| GFTLNSYGIS | VIHSDGRRTFYGDVVK | GRAAGTFDS | nd / nd / nd | 0 of 9 |
| GFTLNSYMIS | VIYSDGRRTFCGDSLK | GRAAGTFDS | nd / nd / nd | 1 of 9 (3.58) |
| GFTWNSYGIS | VIYSDGRYTFYGDSVK | GRHAGTFDS | nd / nd / nd | 0 of 9 |
| GFTLNSYGIS | VIYSDCRKTFYGDSVK | GMAAGTFDS | nd / nd / nd | 2 of 9 (4.26) |
| GFTLNSYGIS | VIYWDGRRTFYHDSVP | GRAAGTFDS | nd / nd / 4.71 | 3 of 9 (3.93) |
| GFALNSYGIR | VIYSDGMRTFYGDSVK | GRAAGTFDS | 3.58 / nd / 4.65 | 3 of 9 (3.28) |
| GFTLNSYGIS | VIYSDGRRTFYMDSVT | GRAAGLFDS | nd / nd / nd | 0 of 9 |
| GFILNSYGIL | VIYSDGRRTFYGDSVK | GRAAGTFDS | nd / nd / nd | 2 of 9 (4.02) |
| GFTLNSYGFS | VIYHDGRRTFYGDSVK | GRAAGTDDS | nd / nd / 3.51 | 0 of 9 |
| GFTLNSYGIC | VIYSDGRRTFKGDSVK | GRATGTFDS | 4.61 / nd / nd | 2 of 9 (4.24) |
| IFTLNSYGIS | VIYIDGRRTFYGDSVK | GRAAGTFDS | nd / nd / nd | 0 of 9 |
| GFTLNSYTIS | VIYSDGRRTFKGNSVK | GRAAGTFDS | 4.70 / 5.02 / 4.81 | 6 of 9 (4.17) |
| GFTLQSYDIS | VIYSDGRTTFYGDSVK | GRAAGTFDS | nd / 3.48 / nd | 3 of 9 (4.04) |
| GFTLNSYGIS | VIYSDGRRTFYGQSVK | PRVAGTFDS | 6.73 / 3.29 / nd | 6 of 9 (5.00) |
| GFTLNSYGIS | VIYSDGRRTFYGDSVF | VRAAGTFDS | 1.13 / 1.19 / 1.67 | 0 of 9 |
| GFTLNSYGIS | VIYSDGRRTFYGDSVG | GRMAGGFDS | 2.19 / 2.23 / 2.19 | 0 of 9 |
| GFVLNSYGIS | VIYSDSRATFYGDSVK | GRAAGTFDS | nd / nd / 5.00 | 2 of 9 (4.07) |
| GFVLNSYGIK | VIYSDGRPTFYGDSVK | GRAAGTFDS | nd / nd / nd | 1 of 9 (3.90) |
| GFTLNSFGTS | VIYSDGRRTFYGDSVK | GRAVGTFDS | nd / 4.68 / nd | 0 of 9 |
| GFTLNSYGIS | VHYYDGRRTFVGDSVK | GRAAGTFDS | nd / nd / nd | 0 of 9 |
| GNTLNSYGIS | VWYSDGRRTFYGDSVK | GMAAGTFDS | nd / nd / nd | 0 of 9 |

A selection of 3 entries from above:

CDR-H1,CDR-H2,CDR-H3,"log10 Kd, replicates",signal with controls
GFTLNSYGIS,VIYSDGRRTFYGDSVF,VRAAGTFDS,1.13 / 1.19 / 1.67,0 of 9
AFTLNSYGIS,VMYSDGRRTFYGDSVK,GRQAGTFDS,1.14 / 1.35 / 0.72,0 of 9
GFTLNSYCIS,VIYSDGRRTFYGDSIK,GRAAGTFDS,nd / nd / nd,0 of 9

Background: pairings of library AAYL49 with three empty control strains gave a value in 15% of cases (median 4.06, 5th percentile 2.83). Values in that range, when seen in few replicates, are hard to tell from nonspecific mating. The control count says in how many pairings with the empty strains this scFv gave a signal, with their mean in brackets.